# Experimental data taken from PubChem BioAssay AID781 (Emory University Molecular Libraries Screening Center, 2007).
# The chains behind the UniProt entries cited, without tags or fusion partners.
# UniProt P63103, whole entry: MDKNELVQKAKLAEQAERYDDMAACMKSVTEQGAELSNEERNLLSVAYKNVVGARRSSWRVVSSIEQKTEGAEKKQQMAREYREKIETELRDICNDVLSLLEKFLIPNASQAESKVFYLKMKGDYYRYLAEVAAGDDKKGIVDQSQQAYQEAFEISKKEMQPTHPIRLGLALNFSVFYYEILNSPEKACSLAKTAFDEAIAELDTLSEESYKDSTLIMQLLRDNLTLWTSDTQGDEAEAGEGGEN
# This is a selection; strong and weak results do not stand in their true shares. Some salts and complexes are drawn in separate pieces, as the source files them; their charges need not balance. Active and inactive are the calls of the source.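 Rule for the calls: active = inhibition above about 70% (limit read from the data); inactive = the rest.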
# Target: 14-3-3 protein zeta/delta (Bos taurus) (UniProt P63103)
# Assay: disruptors of 14-3-3 zeta phospho-Bad complex – biochemical, TR-FRET, bovine 14-3-3 zeta, primary screen (AID 781);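 note: 0% = full 14-3-3 plus peptide FRET controls and 100% = background without 14-3-3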
# Conditions: TR-FRET 14-3-3zeta/Dy647-pBad peptide displacement, 1 h; at 21.7 µM; active compounds read high
row,SMILES,inhibition
1,CCOC(=O)c1ccc(NP(C)(=O)Oc2ccc(F)cc2)cc1 (centres undefined),inactive: -4.15%
2,COc1ccc2c(c1O)-c1c(O)c(OC)cc3c1[C@H](C2)[N+](C)(C)CC3.O=[N+]([O-])c1cc([N+](=O)[O-])c([O-])c([N+](=O)[O-])c1[O-],inactive: -2.48%
3,O=C(OCCN1CCN(CCOCc2ccccc2)CC1)C(O)(c1ccccc1)c1ccccc1,inactive: 36.7%
4,O=C(OC1CN2CCC1CC2)c1ccc([N+](=O)[O-])cc1 (centres undefined),inactive: 6.88%
5,CC(C)c1ccc(OP(C)(=O)Nc2ccc(SC(F)(F)F)cc2)cc1 (centres undefined),inactive: 9.27%
6,CP(=O)(Nc1ccccc1F)Oc1ccccc1 (centres undefined),inactive: -1.33%
7,Cc1ccccc1NP(C)(=O)Nc1ccccc1C,inactive: -2.59%
8,CP(=O)(Nc1ccc2c(c1)OCCO2)Oc1ccccc1 (centres undefined),inactive: 16.2%
9,CCOP(C)(=S)SCC(=O)NC(C)(CC)C(=O)O (centres undefined),inactive: -1.84%
10,CP(=O)(Nc1ccc(SC(F)(F)F)cc1)Oc1ccc(F)cc1 (centres undefined),inactive: 5.01%
11,Cc1cc(-c2cccc3ccccc23)c(C)cn1.O=[N+]([O-])c1cc([N+](=O)[O-])c(O)c([N+](=O)[O-])c1,inactive: -1.74%
12,O=[N+]([O-])c1cc([N+](=O)[O-])c(NCC2CCS(=O)(=O)C2)c([N+](=O)[O-])c1 (centres undefined),inactive: -3.55%
13,O=[N+]([O-])c1ccc(OP2(=O)COCCO2)cc1 (centres undefined),inactive: 6.07%
14,COc1ccc(NP(C)(=O)Oc2ccccc2OC)cc1 (centres undefined),inactive: -0.96%
15,CN(C)CCOC(=O)C(O)(c1ccccc1)C1CCCCC1 (centres undefined),inactive: 7.49%
16,COc1ccc(OP(C)(=O)Nc2cccc(Br)c2)cc1 (centres undefined),inactive: 9.96%
17,CP(=O)(Nc1ccc(SC(F)(F)F)cc1)Oc1ccccc1 (centres undefined),inactive: -2.08%
18,CCCOc1ccc(NP(C)(=O)Oc2ccc(Cl)cc2)cc1 (centres undefined),inactive: 0.9%
19,CN1CCCCC1COC(=O)C1(O)c2ccccc2CCc2ccccc21 (centres undefined),inactive: -13.5%
20,COc1ccccc1OP(C)(=O)Nc1c(C)cccc1C (centres undefined),inactive: -9.33%
21,CCOC(=O)C(CC)C1=NC(C)(C)Cc2ccccc21.O=[N+]([O-])c1cc([N+](=O)[O-])c(O)c([N+](=O)[O-])c1 (centres undefined),inactive: -12.9%
22,O=[N+]([O-])c1cc([N+](=O)[O-])c(Nc2nnnn2CCO)c([N+](=O)[O-])c1,inactive: 3.2%
23,Cc1nc2ccc3ccccc3c2s1.O=[N+]([O-])c1cc([N+](=O)[O-])c(O)c([N+](=O)[O-])c1,inactive: 38.6%
24,O=[N+]([O-])c1cc([N+](=O)[O-])c(-n2nnc3ccccc32)c([N+](=O)[O-])c1,inactive: -12.6%
25,CP(=O)(Nc1cccc(Br)c1)Oc1ccccc1 (centres undefined),inactive: -5.09%
26,Cc1cc(C)cc(OP(C)(=O)Nc2ccccn2)c1 (centres undefined),inactive: -2.58%
27,Cc1ccc(C)c(NP(C)(=O)Oc2ccccc2)c1 (centres undefined),inactive: 8.88%

row,SMILES,inhibition
1,Cc1cc(C)cc(OP(C)(=O)Nc2ccc(C)cc2C)c1 (centres undefined),inactive: 4.54%
2,CCOC(=O)c1ccc(NP(C)(=O)Oc2cc(C)cc(C)c2)cc1 (centres undefined),inactive: -11.2%
3,COc1ccccc1OP(C)(=O)Nc1cccc(Br)c1 (centres undefined),inactive: 0.43%
4,CC1=NCCc2c1[nH]c1ccccc21.O=[N+]([O-])c1cc([N+](=O)[O-])c(O)c([N+](=O)[O-])c1,inactive: -4.83%
5,O=C(O)c1cccc(Nc2c([N+](=O)[O-])cc([N+](=O)[O-])cc2[N+](=O)[O-])c1,inactive: -0.53%
6,COc1ccc(OP(C)(=O)Nc2cccc(F)c2)cc1 (centres undefined),inactive: 4.74%
7,COc1ccccc1OP(C)(=O)Nc1cc(Cl)ccc1C (centres undefined),inactive: -0.62%
8,Cc1cc(C)cc(OP(C)(N)=O)c1 (centres undefined),inactive: -0.48%
9,CCOC(=O)c1ccc(NP(C)(=O)Oc2ccccc2)cc1 (centres undefined),inactive: 7.97%
10,Cc1ccc(NP(C)(=O)Oc2ccccc2)c(C)c1 (centres undefined),inactive: -6.05%
11,COc1ccccc1OP(C)(=O)Nc1ccc(C)cc1 (centres undefined),inactive: -9.7%
12,Cc1cccc(C)c1OP(C)(N)=O (centres undefined),inactive: 0.74%
13,CC(C)(C)c1ccc(OP(C)(=O)Nc2ccc(SC(F)(F)F)cc2)cc1 (centres undefined),inactive: 1.5%
14,O=[N+]([O-])c1ccc2c(c1)C=Nc1ccccc1O2,inactive: -5.36%
15,CCN(CC)CCCOC(=O)C(O)(c1ccccc1)c1ccccc1,inactive: -7.09%
16,CP(=O)(Nc1ccccn1)Oc1ccc(Cl)cc1 (centres undefined),inactive: -1.17%
17,CCOP(C)(=S)SCC(=O)NC(C)C(=O)O (centres undefined),inactive: -3.41%
18,CCOC(=O)c1ccc(NP(C)(=O)Oc2ccc(OC)cc2)cc1 (centres undefined),inactive: 0.88%
19,Cc1cc(C)cc(OP(C)(=O)Nc2ccc(SC(F)(F)F)cc2)c1 (centres undefined),inactive: 9.32%
20,CCc1ccc(OP(C)(=O)N2CCN(c3ccc([N+](=O)[O-])cc3)CC2)cc1 (centres undefined),inactive: -1.42%
21,CP(=O)(NC(=O)Nc1ccccc1)Oc1ccccc1 (centres undefined),inactive: -0.07%
22,CP(=O)(Oc1ccccc1)OC(c1ccccc1)C(F)(F)F (centres undefined),inactive: -1.99%
23,CP(=O)(Nc1ccc(SC(F)(F)F)cc1)Oc1ccc(Cl)cc1 (centres undefined),inactive: 3.18%
24,Cc1cccc(C)c1OP(C)(=O)Nc1ccc(SC(F)(F)F)cc1 (centres undefined),inactive: -6.59%
25,COc1ccccc1OP(C)(=O)Nc1ccccc1 (centres undefined),inactive: -6.67%
26,CP(=O)(Nc1ccccc1Br)Oc1ccccc1 (centres undefined),inactive: -7.05%
27,CP(=S)(Nn1cnnc1)Oc1ccccc1 (centres undefined),inactive: -20.1%
